Data on 22 compounds can be found in patent publication US10442819B2, “Tricyclic compounds as inhibitors of mutant IDH enzymes” (Merck Sharp & Dohme Corp., priority 2014, dated 2019).

The chains behind the UniProt entries cited, without tags or fusion partners.
UniProt O75874, whole entry R132H: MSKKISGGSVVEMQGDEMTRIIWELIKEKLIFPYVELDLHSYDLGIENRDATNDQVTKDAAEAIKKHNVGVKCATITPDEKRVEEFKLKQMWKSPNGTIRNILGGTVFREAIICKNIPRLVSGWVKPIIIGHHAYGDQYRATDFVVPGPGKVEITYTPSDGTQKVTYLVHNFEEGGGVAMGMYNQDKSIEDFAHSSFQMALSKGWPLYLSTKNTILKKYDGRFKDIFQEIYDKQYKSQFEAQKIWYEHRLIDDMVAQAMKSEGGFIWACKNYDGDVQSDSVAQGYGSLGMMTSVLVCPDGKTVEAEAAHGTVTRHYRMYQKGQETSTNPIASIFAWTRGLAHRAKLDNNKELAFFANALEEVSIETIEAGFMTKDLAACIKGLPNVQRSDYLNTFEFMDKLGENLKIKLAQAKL

The target in the experiment is R132H mutant IDH1 enzyme (Homo sapiens (Human), UniProt O75874, R132H). Put plainly: R132H IDH1 Enzymatic Assay. The class given is biochemical. Particulars: R132H mutant IDH1 enzyme 1.5 nM final; luminescence readout; read-out: IC50.

The IC50 is the point on the concentration scale where inhibition reaches its midpoint.

As to `O=C(C1CCN(CC(F)(F)F)CC1)N1Cc2cccnc2Nc2ccc(N3C[C@H]4C[C@@H]3CO4)cc21` [Example 307, 8-[(1R,4R)-2-oxa-5-azabicyclo[2.2.1]hept-5-yl]-6-{[1-(2,2,2-trifluoroethyl)piperidin-4-yl]carbonyl}-6,11-dihydro-5H-pyrido[2,3-b][1,5]benzodiazepine], the IC50 was found to be 16 nM.

Consider `COC(C)(C)C1CC(C(=O)N2Cc3cccnc3Nc3ccc(N4CCOCC4)cc32)C1` (stereo not shown) [Example 164, 6-{[3-(1-methoxy-1-methylethyl)cyclobutyl]carbonyl}-8-morpholin-4-yl-6,11-dihydro-5H-pyrido[2,3-b][1,5]benzodiazepine], for which the IC50 stood at 1330 nM.

For the compound `CO[C@@H](C(C)C)[C@H]1CC[C@H](C(=O)N2Cc3cccnc3Nc3ccc(N4CCOCC4)cc32)CC1` [Example 118, 6-({trans-4-[(1S)-1-methoxy-2-methylpropyl]cyclohexyl}-carbonyl)-8-morpholin-4-yl-6,11-dihydro-5H-pyrido[2,3-b][1,5]benzodiazepine], the IC50 turned out to be 30 nM.

Take `CO[C@H]1CC[C@H](C(=O)N2Cc3cccnc3Nc3ccc(N4CCn5nncc5C4)cc32)CC1` [Example 271, 8-(6,7-dihydro[1,2,3]triazolo[1,5-a]pyrazin-5(4H)-yl)-6-[(trans-4-methoxycyclohexyl)carbonyl]-6,11-dihydro-5H-pyrido[2,3-b][1,5]benzodiazepine]: the concentration for half-maximal inhibition (IC50) stood at 689 nM.

Take `COc1ccc(-c2ccc3c(c2)N(C(=O)[C@H]2CC[C@H](OC)CC2)Cc2cccnc2N3)cn1` [Example 405, 6-[(trans-4-methoxycyclohexyl)carbonyl]-8-(6-methoxypyridin-3-yl)-6,11-dihydro-5H-pyrido[2,3-b][1,5]benzodiazpine]: the IC50 came out at 91 nM.

With `CO[C@H]1CC[C@H](C(=O)N2Cc3cccnc3Nc3ccc(C4(O)CCOCC4)cc32)CC1` [Example 511, [8-(4-Hydroxytetrahydro-2H-pyran-4-yl)-5,11-dihydro-6H-pyrido[2,3-b][1,5]benzodiazepin-6-yl](trans-4-methoxycyclohexyl)methanone], the IC50 stood at 277 nM.

In the case of `O=C([C@H]1CC[C@H](c2ccccc2)CC1)N1Cc2cccnc2Nc2ccc(N3CCOCC3)cc21` [Example 128, 8-morpholin-4-yl-6-[(trans-4-phenylcyclohexyl)carbon-yl]-6,11-dihydro-5H-pyrido[2,3-b][1,5]benzodiazepine], the 50% inhibitory concentration (IC50) stood at 71 nM.

Consider `CC1(C)CC(C(=O)N2Cc3cccnc3Nc3ccc(N4CCC45CNC5)cc32)C1` [Example 190, 8-(1,6-Diazaspiro[3.3]hept-1-yl)-6-[(3,3-dimethylcyclobutyl)carbonyl]-6,11-dihydro-5H-pyrido[2,3-b][1,5]benzodiazepine], for which the IC50 was determined as 3720 nM.

As for `C[C@@H]1C[C@H](C)C[C@H](C(=O)N2Cc3cccnc3Nc3ccc(N4CCOCC4)cc32)C1` [Example 123, 6-{[(1s,3R,5S)-3,5-dimethylcyclohexyl]car-bonyl}-8-morpholin-4-yl-6,11-dihydro-5H-pyrido[2,3-b][1,5]benzodiazepine], the IC50 stood at 59 nM.

Take `O=C([C@H]1CC[C@H](NC2(C(F)(F)F)CC2)CC1)N1Cc2cccnc2Nc2ccc(N3C[C@H]4C[C@@H]3CO4)cc21` [Example 303, trans-4-({8-[(1R,4R)-2-oxa-5-azabicyclo[2.2.1]hept-5-yl]-5,11-dihydro-6H-pyrido[2,3-b][1,5]benzodiazepin-6-yl}carbonyl)-N-[1-(trifluoromethyl)cyclopropyl] cyclohexanamine]: the IC50 was determined as 37 nM.

For the compound `CO[C@H]1C[C@H]2CC[C@@H](C1)N2c1ccc2c(c1)N(C(=O)C1CCCN(CC(F)(F)F)CC1)Cc1cccnc1N2` (stereo partly drawn) [Example 343, 8-[(3-endo)-3-methoxy-8-azabicyclo[3.2.1]oct-8-yl]-6-{[1-(2,2,2-trifluoroethyl)azepan-4-yl]carbonyl}-6,11-dihydro-5H-pyrido[2,3-b][1,5]benzodiazepine], the IC50 amounted to 24 nM.

On to `O=C(C1CCN(CC(F)(F)F)CC1)N1Cc2cccnc2Nc2ccc(C3CCOCC3)cc21` [Example 515, 8-(tetrahydro-2H-pyran-4-yl)-6-{[1-(2,2,2-trifluoroethyl)piperidin-4-yl]carbonyl}-6,11-dihydro-5H-pyrido[2,3-b][1,5]benzodiazepine], for which the IC50 stood at 6 nM.

For the compound `CCON=C1CC(C(=O)N2Cc3cccnc3Nc3ccc(-c4cnn(C)c4)cc32)C1` (stereo not shown) [Example 398, 3-{[8-(1-methyl-1H-pyrazol-4-yl)-5,11-dihydro-6H-pyrido[2,3-b][1,5]benzodiazepin-6-yl]carbonyl}cyclobutanone O-ethyloxime], the IC50 was determined as 36 nM.

For the compound `CO[C@H]1CC[C@@H](C(=O)N2Cc3cccnc3Nc3ccc(N4CCOCC4)cc32)C[C@H]1C` (single isomer, unassigned) [Example 97], the IC50 was found to be 94 nM.

On to `CO[C@H]1CC[C@H](C(=O)N2Cc3cccnc3Nc3ccc(N4CC5CC4CO5)cc32)CC1` (stereo partly drawn) [Example 296, 6-[(trans-4-methoxycyclohexyl)carbonyl]-8-(2-oxa-5-azabicyclo[2.2.1]hept-5-yl)-6,11-dihydro-5H-pyrido[2,3-b][1,5]benzodiazepine], for which the IC50 came out at 698 nM.

Turning to `CO[C@@H]1CC[C@@H](C(=O)N2Cc3cccnc3Nc3ccc(N4CCOCC4)cc32)C[C@@H]1C(F)(F)F` (single isomer, unassigned) [Example 99], the IC50 was determined as 61 nM.

In the case of `CON=C1CCC(C(=O)N2Cc3cccnc3Nc3ccc(N4C[C@]5(C)C[C@H]4CO5)cc32)CC1` (stereo partly drawn) [Example 350, 4-({8-[(1S,4S)-1-methyl-2-oxa-5-azabicyclo[2.2.1]hept-5-yl]-5,11-dihydro-6H-pyrido[2,3-b][1,5]benzodiazepin-6-yl}carbonyl)cyclohexanone O-methyloxime], the IC50 was found to be 68 nM.

As for `CO[C@@H]1CC[C@H](C(=O)N2Cc3cccnc3Nc3ccc(N4CCOCC4)cc32)[C@H](C)C1` [Example 115, 6-{[(1S,2R,4R)-4-methoxy-2-methylcyclohexyl]carbon-yl}-8-morpholin-4-yl-6,11-dihydro-5H-pyrido[2,3-b][1,5]benzodiazepine], the IC50 worked out at 440 nM.

For the compound `CC(C)C1CC(C(=O)N2Cc3cccnc3Nc3ccc(N4CCOCC4)cc32)C1` (stereo not shown) [Example 150, 6-{[3-(1-methylethyl)cyclobutyl]-carbonyl}-8-morpholin-4-yl-6,11-dihydro-5H-pyrido[2,3-b][1,5]benzodiazepine], the IC50 was 125 nM.

As to `CO[C@H]1CC[C@H](C(=O)N2Cc3cccnc3Nc3ccc(N4CCN(CC(F)(F)F)CC4)cc32)CC1` [Example 238, 6-[(trans-4-methoxycyclohexyl)carbonyl]-8-[4-(2,2,2-trifluoroethyl)piperazin-1-yl]-6,11-dihydro-5H-pyrido[2,3-b][1,5]benzodiazepine], the IC50 amounted to 989 nM.

Turning to `CO[C@@H]1CO[C@](C)(c2ccc3c(c2)N(C(=O)[C@H]2CC[C@H](OC(C)C)CO2)Cc2cccnc2N3)C1` [Example 144, ((2R,5S)-5-isopropoxytetrahydro-2H-pyran-2-yl)(8-((2S,4S)-4-methoxy-2-methyltetrahydrofuran-2-yl)-5,11-dihydro-6H-benzo[b]pyrido[2,3-e][1,4]diazepin-6-yl)methanone], the 50% inhibitory concentration (IC50) was 11 nM.

As to `CO[C@H]1CCN(c2ccc3c(c2)N(C(=O)[C@H]2CC[C@H](OC(C)C)CO2)Cc2cccnc2N3)[C@@H](C)C1` (single isomer, unassigned) [Example 46], the IC50 is 57 nM.
